Test results published in ChEMBL document CHEMBL5154699 (Eur J Med Chem, 2022).

Sequences of proteins named here, by UniProt entry; tags and fusion partners are left off.
UniProt P33533, whole entry, looked up: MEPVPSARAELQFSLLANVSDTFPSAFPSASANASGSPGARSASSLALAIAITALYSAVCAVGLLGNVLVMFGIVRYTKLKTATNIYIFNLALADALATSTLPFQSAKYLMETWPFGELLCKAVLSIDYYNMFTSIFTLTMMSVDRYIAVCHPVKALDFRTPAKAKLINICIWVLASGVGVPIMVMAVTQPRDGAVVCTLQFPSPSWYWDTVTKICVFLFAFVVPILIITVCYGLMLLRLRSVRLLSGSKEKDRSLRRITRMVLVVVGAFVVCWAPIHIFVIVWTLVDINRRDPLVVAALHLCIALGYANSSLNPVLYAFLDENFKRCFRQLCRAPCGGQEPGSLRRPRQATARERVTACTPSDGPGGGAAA
UniProt P97266, whole entry, looked up: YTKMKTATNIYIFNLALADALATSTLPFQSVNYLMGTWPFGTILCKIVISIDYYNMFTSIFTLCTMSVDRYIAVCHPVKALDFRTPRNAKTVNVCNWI

Legend:
[1] = target: Delta-type opioid receptor (Rattus norvegicus) (UniProt P33533); assay: Displacement of [3H]-DPDPE from DOR in rat brain membranes at 1 uM measured by competitive radioligand receptor binding assay relative to control; details: Membrane
[2] = target: Mu-type opioid receptor (Cavia porcellus) (UniProt P97266); assay: Displacement of [3H]-DAMGO from MOR in guinea pig brain membranes at 1 uM measured by competitive radioligand receptor binding assay relative to control; details: Membrane

Row | Structure (SMILES) | Activity [1] [%] | Activity [2] [%]
1 | CN(C)[C@@H]1C[C@@H]2CCN(C(=O)Cc3ccc(Cl)c(Cl)c3)[C@H]1C2 | 0 | 
2 | O=C(Cc1ccc(Cl)c(Cl)c1)N1CC[C@H]2C[C@@H]1[C@@H](N1CCCC1)C2 | 0 | 0
3 | CN(C)[C@H]1C[C@H]2CCN(C(=O)Cc3ccc(Cl)c(Cl)c3)[C@@H]1C2 | 0 | 0
4 | O=C(Cc1ccc(Cl)c(Cl)c1)N1CC[C@H]2C[C@@H](N3CCCC3)[C@@H]1C2 |  | 0
